ChEMBL document CHEMBL1155179 (J Med Chem, 2009)

Sequences of proteins named here, by UniProt entry; tags and fusion partners are left off.
UniProt Q01827, whole entry: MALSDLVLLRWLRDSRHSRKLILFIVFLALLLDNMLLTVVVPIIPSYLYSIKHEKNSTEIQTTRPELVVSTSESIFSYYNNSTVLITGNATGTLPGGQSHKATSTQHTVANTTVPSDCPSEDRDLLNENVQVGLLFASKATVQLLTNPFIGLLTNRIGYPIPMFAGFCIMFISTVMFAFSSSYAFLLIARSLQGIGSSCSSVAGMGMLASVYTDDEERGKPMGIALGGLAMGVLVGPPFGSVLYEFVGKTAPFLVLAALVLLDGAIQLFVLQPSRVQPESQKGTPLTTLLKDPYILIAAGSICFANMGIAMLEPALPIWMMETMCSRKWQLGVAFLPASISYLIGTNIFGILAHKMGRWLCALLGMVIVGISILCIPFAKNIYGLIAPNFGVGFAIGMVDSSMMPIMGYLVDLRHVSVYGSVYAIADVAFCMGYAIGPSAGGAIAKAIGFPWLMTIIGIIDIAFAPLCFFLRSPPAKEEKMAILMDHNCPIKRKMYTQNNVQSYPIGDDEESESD

Experiments:
Assay type in all cases: tissue-based
[1] = target: T1, Synaptic vesicular amine transporter (Rattus norvegicus, UniProt Q01827); test: Inhibition of [3H]dopamine uptake at VMAT2 in rat brain synaptic vesicle by liquid scintillation spectroscopy
[2] = target: Synaptic vesicular amine transporter (Rattus norvegicus) (UniProt Q01827); test: Ratio of Ki for displacement of [3H]DTBZ from VMAT2 dihydrotetrabenazine binding site in rat brain synaptic vesicle to Ki for inhibition of [3H]dopamine uptake at VMAT2 in rat brain synaptic vesicle
[3] = target: T1, Synaptic vesicular amine transporter; test: Displacement of [3H]DTBZ from VMAT2 dihydrotetrabenazine binding site in rat brain synaptic vesicle by scintillation counting

SMILES: COc1cc2c(cc1OC)C1CC(=O)C(CC(C)C)CN1CC2 (stereo not drawn) [TETRABENAZINE]
- Ki [1]: 54 nM
- Ratio Ki [2]: 0.24
- Ki [3]: 13 nM
